Results from US7396817B2, “Biologically active peptides comprising Isoleucyl-valyl-threonyl-asparaginyl-threonyl-threonine (IVTNTT)” (CMS Peptides Patent Holding Company Limited, priority 2003, dated 2008).

Tested on: hepG 2 2.2.15 cell line
Test: Cytotoxicity (cell survival, TC50) in the HBV-DNA experiment
Details: 2.2.15 cells, day 8; concentration at which cell survival is 50% of control
Procedure: Cell suspensions were prepared and incubated as described in Method 1 above. […] The culture media, with added test substance, were exchanged on days 3 and 6. On the 8th day, the supernatants of the cell cultures were harvested for the determination of HBV-DNA concentrations by fluorescent quantitative PCR^[3,4], using the method described by the kit supplier. The cultured cells were taken for analysis of the cytotoxicity of each test substance. The inhibitory percentage of the drug was calculated in the following manner: Inhibitory percentage (%)=(blank control−sample)/blank control×100 Cell survival percentage (%)=sample (A595−A650)/blank control (A595−A650)×100
TC50 was defined as the test substance concentration at which the percentage of surviving cells in the test group is 50% of that of the control group. IC50 was the test substance concentration at which the percentage of reduction of HBV-DNA concentration is 50% compared to control. These were determined by plotting the corresponding percentage against the test substance concentrations. The selection index (SI) was calculated as TC50/IC50. The bigger the value of SI, the higher the inhibition activity of test substance is and the less cytotoxic it is.

**Q.** With “vidarabine monophosphate [Ara-AMP, reference compound]” as the substance, how does the TC50 read?
**A.** 64.2 µg/mL
